# Results from ChEMBL document CHEMBL4325901, “Novel multitarget-directed ligands targeting acetylcholinesterase and σ1 receptors as lead compounds for treatment of Alzheimer's disease: Synthesis, evaluation, and structural characterization of their complexes with acetylcholinesterase” (Eur J Med Chem, 2019).
# Chains of the proteins cited; added tags and fusions are not shown. Lines headed by an entry give the natural chain unless they say otherwise; changes in a name come on top.
# UniProt P22303: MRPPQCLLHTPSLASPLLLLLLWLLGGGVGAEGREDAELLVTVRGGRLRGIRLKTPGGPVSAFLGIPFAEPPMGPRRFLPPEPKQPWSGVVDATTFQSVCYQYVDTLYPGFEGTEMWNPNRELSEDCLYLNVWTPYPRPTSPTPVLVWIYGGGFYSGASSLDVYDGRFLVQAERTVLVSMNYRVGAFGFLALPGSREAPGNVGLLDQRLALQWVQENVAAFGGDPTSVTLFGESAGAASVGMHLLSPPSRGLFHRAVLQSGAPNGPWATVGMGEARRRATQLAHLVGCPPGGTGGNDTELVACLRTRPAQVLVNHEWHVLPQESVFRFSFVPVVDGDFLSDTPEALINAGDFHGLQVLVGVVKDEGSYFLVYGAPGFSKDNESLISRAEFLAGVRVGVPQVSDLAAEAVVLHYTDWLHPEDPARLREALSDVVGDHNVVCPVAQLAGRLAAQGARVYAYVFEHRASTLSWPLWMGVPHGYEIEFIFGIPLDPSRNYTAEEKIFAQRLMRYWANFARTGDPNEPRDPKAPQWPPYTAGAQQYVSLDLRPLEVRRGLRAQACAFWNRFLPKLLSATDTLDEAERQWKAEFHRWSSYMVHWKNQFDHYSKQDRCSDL
# Molecular target: Acetylcholinesterase (Homo sapiens, UniProt P22303)
# Experiment: Inhibition of AChE (unknown origin)
structure (smiles),measurement,value
COc1cc(N)c(Cl)cc1C(=O)CCC1CCN(CC2CCCCC2)CC1,Ki,16 nM
